Patent publication EP1536230A1, “Flow cytometric, particle-based binding assay” (Deutsches Rheuma-Forschungszentrum Berlin, priority 2003, dated 2005)

Experiments:
CaN-VIVIT Bindung = molecular target: T1, CaN-VIVIT Bindung (Homo sapiens, UniProt Q08209); experiment: Flow cytometric binding assay: competition / blocking of the CaN-VIVIT binding; set-up: species or system menschliches
T1 construct: made in house; host or cells: E. coli
Protocol: (§1) Zu rekombinantem menschlichen FITC-CaN (25 nM), das in Assaypuffer mit 0,05% BSA mit biotinyliertem VIVIT-Peptid (300 nM) bzw. NFAT-B Peptid (4 µM) für 10 min lichtgeschützt auf Eis inkubierte, wurden 50000 beads in 10 µl Asaypuffer pipettiert. Nach weiteren 10 min Inkubation wurde das Reaktionsgemisch (110 µl) im Durchflusszytometer "FacsCalibur" (BD Biosciences) gemessen. Bei der Testung von Substanzen auf ihre Fähigkeit, die CaN-VIVIT Bindung zu blockieren, wurde ein zusätzlicher Inkubationsschritt dem o.g. Assay vorgeschaltet. Dafür wurde 1 µl Inhibitor (in DMSO) zu FITC-CaN in Assaypuffer (94 µl) pipettiert und anschließend für 30 min lichtgeschützt auf Eis belassen. Die Auswertung der Meßdaten erfolgte mit der Software CellQuest (BD Biosciences).
Durch spezifische Konkurrenz (Kompetierung) von zugegebenen Verbindungen mit Komponenten eines Assays lassen sich ebenfalls Aussagen über die Spezifität von Bindungen treffen.
Zur Testung von verschiedenen niedermolekularen immunsuppressiven Substanzen auf ihre Fähigkeit, die CaN-VIVIT Bindung zu blockieren, wurde ein zusätzlicher Inkubationsschritt von FITC-CaN mit der entsprechenden Verbindung vorgeschaltet. Als negative Kontrolle wurde der immunsuppressive Komplex CsA/Cyclophilin18 (Cyp) getestet, der bekanntermaßen die Calcineurinaktivität nicht aber die CaN-NFAT Bindung hemmt. […]

FITC-Ovalbumin = molecular target: T2, FITC-Ovalbumin (Gallus gallus, UniProt P01012); experiment: Flow cytometric, particle-based binding assay with control protein FITC-Ovalbumin (specificity); conditions: FITC-Ovalbumin (25 nM), biot-VIVIT-Peptid (300 nM)
T2 construct: purchased Sigma
T2 sequence (P01012 1-386): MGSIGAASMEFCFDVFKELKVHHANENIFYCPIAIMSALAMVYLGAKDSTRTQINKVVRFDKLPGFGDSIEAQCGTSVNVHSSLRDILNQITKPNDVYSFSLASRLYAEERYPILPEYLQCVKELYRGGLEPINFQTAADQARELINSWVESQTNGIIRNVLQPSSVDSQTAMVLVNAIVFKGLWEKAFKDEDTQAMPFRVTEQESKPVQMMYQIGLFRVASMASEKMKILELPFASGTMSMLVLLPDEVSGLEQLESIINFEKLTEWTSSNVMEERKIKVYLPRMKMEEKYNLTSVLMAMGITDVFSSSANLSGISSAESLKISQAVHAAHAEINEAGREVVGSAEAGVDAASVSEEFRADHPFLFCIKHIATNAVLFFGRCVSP

[1] = molecular target: T3, Rekombinantes menschliches CaN (Homo sapiens, UniProt Q08209); experiment: Flow cytometric, particle-based binding assay: FITC-CaN bound via biotinylated peptide to streptavidin beads; conditions: FITC-CaN (25 nM), biot-VIVIT-Peptid (300 nM), Streptavidin-Beads (50000), versus control without peptide
T3 construct: made in house; host or cells: E. coli
Protocol: Der Assaypuffer war wie folgt zusammengesetzt: 25mM Tris/HCl, 3mM MgCl2, 1mM EGTA, 0,5mM DTT oder TCEP, pH 7,4. Wenn nicht anders angegeben, wurde der Assaypuffer noch mit 0,05% BSA (PAA laboratories) versetzt.
Rekombinantes menschliches CaN wurde in Boratpuffer aufgenommen und mit FITC (Sigma) in einem molaren Verhältnis von 1:12 für 1h auf Eis und vor Licht geschützt inkubiert. Das ungebundenen FITC wurde dann über eine PD10 Säule (Amersham-Pharmacia) abgetrennt.
as §1

## GMAGPHPVIVITGPHEE
CaN-VIVIT Bindung; 50 facher Überschuß of nichtbiotinyliertem VIVIT
  beadassoziierte spezifische Bindung von FITC-CaN über biot-VIVIT (Kompetierung): nicht mehr nachweisbar
CaN-VIVIT Bindung; nichtbiotinyliertes VIVIT (1500 nM) displaces biotinylated VIVIT
  beadassoziiertes FITC-CaN (Kompetierung): kein beadassoziiertes FITC-CaN mehr nachweisbar

## biotinyl-GMAGPHPVIVITGPHEE (N-terminal biotin) [biot-VIVIT]
FITC-Ovalbumin; listed as VIVIT-Peptid
  Fluoreszenzintensität (Bindung des Kontrollproteins FITC-Ovalbumin): keine erhöhte Fluoreszenzintensität
FITC-Ovalbumin; listed as biot-VIVIT-Peptid
  Fluoreszenzintensität (Bindung des Kontrollproteins FITC-Ovalbumin): aber nicht
[1]; listed as VIVIT-Peptid
  mittlere Fluoreszenzintensität (Bindung von FITC-CaN über biotinyliertes Peptid an Beads): erhöhte Fluoreszenzintensität
[1]; listed as biot-VIVIT-Peptid
  mittlere Fluoreszenzintensität (Bindung von FITC-CaN über biotinyliertes Peptid an Beads): höhere mittlere Fluoreszenzintensität; also recorded: bindet spezifisch; also recorded: erhöhte Fluoreszenzintensität
[1]; listed as biotinyliertem VIVIT-Peptid
  mittlere Fluoreszenzintensität (Bindung von FITC-CaN über biotinyliertes Peptid an Beads): erhöhte Fluoreszenzintensität

“Also recorded” adds a separate entry of the source.
